# According to patent US9174997B2, “4-(4-cyano-2-thioaryl)dihydropyrimidinones and use thereof” (Bayer Intellectual Property GmbH, priority 2007, dated 2015):
# The chains behind the UniProt entries cited, without tags or fusion partners. Residues count along the entry.
# UniProt P08246, 30-267: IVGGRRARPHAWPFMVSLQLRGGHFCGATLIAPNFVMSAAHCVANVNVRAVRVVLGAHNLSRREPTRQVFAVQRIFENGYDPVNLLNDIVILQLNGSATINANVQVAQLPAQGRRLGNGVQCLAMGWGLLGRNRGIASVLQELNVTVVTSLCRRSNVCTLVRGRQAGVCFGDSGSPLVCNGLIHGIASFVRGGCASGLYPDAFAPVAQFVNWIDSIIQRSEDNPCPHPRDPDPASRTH
# Biological target: human neutrophil elastase (HNE) (Homo sapiens (Human), UniProt P08246)
# Assay: In vitro HNE inhibition assay
# Format: biochemical
# Method: B-1. In Vitro HNE Inhibition Assay
# The potency of the compounds of the invention is ascertained in an in vitro inhibition assay. The HNE-mediated amidolytic cleavage of a suitable peptide substrate leads in this connection to an increase in the fluorescent light. The signal intensity of the fluorescent light is directly proportional to the enzyme activity.
# Enzyme ([…]; from Serva, Heidelberg) and substrate (20 μM MeOSuc-Ala-Ala-Pro-Val-AMC; from Bachem, Weil am Rhein) are incubated in an assay volume of in total 50 μl of assay buffer (0.1 M HEPES pH 7.4, 0.5 M NaCl, 0.1% w/v BSA, 1% v/v DMSO) in a 384-well microtiter plate in the presence and absence of the test substance at 37° C. for 2 hours. […] The IC50 values are determined by plotting the intensity of the fluorescent light against the active substance concentration.
compound,measurement,value
"CC1=C(C#N)[C@@H](c2ccc(C#N)cc2S(C)(=O)=O)N(C)C(=O)N1c1cccc(C(F)(F)F)c1 [Example 33, (4S)-4-[4-Cyano-2-(methylsulfonyl)phenyl]-3,6-dimethyl-2-oxo-1-[3-(trifluoromethyl)phenyl]-1,2,3,4-tetrahydropyrimidine-5-carbonitrile]",IC50,< 0.3 nM
